# Screens (PubChem)
# G9a block – inhibitors of human histone lysine methyltransferase G9a; Potency, µM (doses to about 102 µM), for inactives: at the top dose activity, negative = inhibition, actives largely listed as inhibitors; G9a H3K9 monomethylation, AlphaScreen, 2 h; Q96KQ7; AID 504332; 8.8% of 350,000 active; note: potency is the fitted concentration of half-maximal effect; % is set by controls: 0 for no effect and ±100 for the full control effect; nearly all actives have a fitted effect of over 75% in size
#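 AlphaScreen read-out: biotin-H3K9 peptide (500 nM) methylation by 20 nM enzyme with 20 uM SAM, 2 h at room temperature after 15 min compound preincubation; anti-monomethyl H3K9 antibody plus donor/acceptor beads, 10 min dark.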
# miR-21 reporter – miR-21 reporter, rising signal | 340,000 tested, under 10 active | AID 2288 | HeLa miR-21 FLuc reporter, luciferase, 48 h | Potency, µM (titrated, usually from 38.3 µM), for inactives: at the highest dose reporter change, positive = more light; active = well fitted rising curve with a large enough effect; inconclusive = small, poorly fitted or top-dose-only effect; inactive = no such curve, though single readings can be large or run the other way;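 further: % of control where 0% means no effect; miR-21 action dims this reporter so a rising signal means less miR-21 action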
#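 Luminescence from a firefly luciferase reporter carrying a miR-21 binding site downstream, stably expressed under a CMV promoter in HeLa cells that make miR-21 endogenously, reports miRNA modulation after 48 h compound exposure up to approximately 40uM final.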
# LMNA splice mod – LMNA splicing modulation; HeLa LMNA splicing GFP/RFP minigene ratio, 48 h; Potency, µM (doses to about 46.1 µM), without a hit: at the top dose ratio change, negative = inhibition, actives largely listed as inhibitors; 0.01% of 200,000 active; AID 1487; active = well fitted inhibition curve with a large enough effect in the signal ratio, with a control signal flat, not every such curve was filed as active; inconclusive = small, poorly fitted or top-dose-only effect, or effect the other way, or a change in a side signal; the % refers to the signal ratio; note: potency is the fitted concentration of half-maximal effect; % is set by controls: 0 for no effect and ±100 for the full control effect
#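 S3 HeLa stable clones carrying a lamin A-EGFP splicing minigene plus DsRed2 were seeded at 600 cells/well in Opti-MEM with 2% FBS, pin-dosed and incubated 48 h at 37°C. Acumen cytometry (488 nm) gave the GFP/RFP total-intensity ratio.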
# KDM4E inh – JMJD2E (human) inhibition; AID 2147; B2RXH2; 1.6% of 230,000 active; Potency, µM (doses to about 57.1 µM), for the others: top-dose activity change, negative = inhibition, most hits filed as inhibitors; JMJD2E catalytic domain, FDH-coupled NADH fluorescence (FDH is formaldehyde dehydrogenase);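 note: potency is the fitted concentration of half-maximal effect; 0% = wells with enzyme and -100% = buffer wells without enzyme; nearly all actives have a fitted effect of over 50% in size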
# Sfp inh – inhibitors of Bacillus subtilis Sfp phosphopantetheinyl transferase; Q9F4F7; Biochemical Sfp PPTase activity, qHTS; Potency, µM, inactives show max response, negative = inhibition, usual class: inhibitors; 310,000 tested, 3.5% active; active = well fitted inhibition curve with a large enough effect; inconclusive = small, poorly fitted or top-dose-only effect, or another doubt; inactive = no such curve, though single readings can be large or run the other way;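 note: the enzyme is Sfp with the accession as filed and its product quenches rhodamine fluorescence; potency is the fitted concentration of half-maximal effect; 0% = enzyme reaction without inhibitor and -100% = no enzyme wells; top concentration of the series not given in the record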
#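 Fluorescence-quenching assay with 15 nM Sfp, 5 uM rhodamine-CoA and 12.5 uM BHQ-2-labelled ybbR peptide in pH 7.6 Hepes/MgCl2 buffer. Enzyme was pre-incubated with compound for 15 min at room temperature. Rate was taken from the 30-min fluorescence change (525/598 nm).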
# ALDH1A1 block – ALDH1A1 (human) enzyme inhibition. P00352. Purified ALDH1A1, NADH fluorescence, propionaldehyde substrate. Potency, µM (highest dose often 75.3 µM), for the others: at the highest dose activity, negative = inhibition, most hits filed as inhibitors. 7.3% of 220,000 active. AID 1030; active = well fitted inhibition curve with a large enough effect, not every such curve was filed as active; inconclusive = small, poorly fitted or top-dose-only effect, or another doubt; inactive = no such curve, though single readings can be large or run the other way;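 note: potency is the fitted concentration of half-maximal effect; plate controls were no enzyme wells and a reference inhibitor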
# Starred values were filed as active, the others as inactive; ? = inconclusive; nt = not tested or not shown; [ ] = another dose, or the depositor's remark. Sampled rows, rich in hits. Any-hit rate of the full collection: about 13%. Unless noted, calls come from the whole dose curve; as a rule, active = well fitted curve in the direction sought with a large enough effect; inconclusive = small, poorly fitted or top-dose-only effect, or another doubt; inactive = no such curve, though single readings can be large; an effect the other way counts as inactive or inconclusive.
# Results follow in this order: G9a block, miR-21 reporter, LMNA splice mod, KDM4E inh, Sfp inh, ALDH1A1 block
O=S(=O)(NNc1ccc(F)cc1F)c1cccc(Cl)c1
→ 1.26µM*, 8.0%, nt, nt, ?, nt
O=C(Nc1ccc(N2CCN(Cc3ccccc3)CC2)cc1)c1ccco1
→ 79.4µM*, -27.5%, nt, nt, 10.2%, nt
CC(=O)N1CCN(c2ccc(NCc3ccccc3)cc2)CC1
→ 14.1µM*, -10.9%, ?, -5.8%, 44.7µM*, -10.4%
CC(=O)N1CCN(c2ccc(NCc3ccc(Br)o3)cc2)CC1
→ 3.2%[0.501 µM], nt, nt, nt, nt, nt
O=C(CN1CCN(c2ccccc2)CC1)NCc1ccc(F)cc1
→ 21.4%, -0.9%, nt, nt, 0.8%, nt
Fc1ccc(CNc2ccc(N3CCN(Cc4ccccc4)CC3)cc2)cc1
→ 12.6µM*, 0.2%, nt, nt, -17.3%, nt
CC(=O)N1CCN(c2ccc(NCc3cccc4ccccc34)cc2)CC1
→ 8.91µM*, 2.3%, nt, nt, -22.1%, nt
CCn1c(SCc2ccccc2C)nc(=O)c2c(C(=O)OC)cc(C3CC3)nc21
→ -2.9%[59 µM], -2.6%, ?, nt, nt, nt
Cc1ccccc1Nc1cc(C(=O)NC2CCC(C)CC2)c2ccccc2n1 (stereo not drawn)
→ 7.5%[59 µM], -37.8%, nt, nt, nt, nt
O=C(CSc1nc2ccccc2nc1Cc1ccc(Cl)cc1)N1CCCCC1
→ -25.0%[59 µM], -9.2%, -23.4%[46 µM], nt, nt, nt
CC(=O)NCCNc1nc(-c2ccccc2CN(C)C)nc2ccccc12
→ nt, nt, 7.4%, 6.7%, 1.3%, -3.2%
Fc1ccccc1SCc1nnc(-c2ccccc2Br)o1
→ -10.2%, -58.9%, ?, -1.6%, -30.0%, ?
O=C(c1ccccc1)N1CCN(c2ccc(NCc3ccc4c(c3)OCO4)cc2)CC1
→ 5.01µM*, 23.6%, ?, 1.6%, -23.8%, ?
COC(=O)c1scc(-c2ccc(C)cc2)c1S(=O)(=O)Nc1ccc(NC(C)=O)cc1
→ 14.2%[59 µM], 23.8%, -9.2%[46 µM], nt, nt, nt
COC(=O)c1scc(C)c1S(=O)(=O)Nc1ccc(C)cc1
→ nt, 10.0%, nt, -14.5%, 50.1µM*, nt
O=C(Nc1ccccc1Br)C1CC(=O)N(c2ccc3c(c2)OCCO3)C1 (stereo not drawn)
→ 79.4µM*, nt, nt, nt, nt, nt
O=C(COC(=O)CCNS(=O)(=O)c1ccc2c(c1)OCCO2)NC1CCCc2ccccc21 (stereo not drawn)
→ 14.0%, -4.2%, -1.9%, 3.7%, 15.4%, ?
Cc1ccccc1NC(=O)C1CC(=O)N(c2ccc3c4c(cccc24)CC3)C1 (stereo not drawn)
→ -2.4%, 2.1%, 5.1%, -2.8%, 5.6%, ?
O=C(COC(=O)C1CC(=O)N(c2ccc3c(c2)OCCO3)C1)NC1CCCc2ccccc21 (stereo not drawn)
→ 79.4µM*, -0.5%, -0.3%, -0.2%, 17.5%, ?
COC(=O)c1ccccc1NC(=O)C1CC(=O)N(c2ccc(C)c(C)c2)C1 (stereo not drawn)
→ 8.5%, -6.0%, -7.9%, 2.4%, -2.4%, 17.8µM*

# Part of the list above in another layout.
canonical_smiles,G9a block,miR-21 reporter,LMNA splice mod,KDM4E inh,Sfp inh,ALDH1A1 block
COC(=O)c1scc(C)c1S(=O)(=O)Nc1ccc(C)cc1,nt,10.0%,nt,-14.5%,50.1µM*,nt
Cc1ccccc1NC(=O)C1CC(=O)N(c2ccc3c4c(cccc24)CC3)C1 (stereo not drawn),-2.4%,2.1%,5.1%,-2.8%,5.6%,?
O=C(Nc1ccccc1Br)C1CC(=O)N(c2ccc3c(c2)OCCO3)C1 (stereo not drawn),79.4µM*,nt,nt,nt,nt,nt
CC(=O)NCCNc1nc(-c2ccccc2CN(C)C)nc2ccccc12,nt,nt,7.4%,6.7%,1.3%,-3.2%

# Following part
# Results follow in this order: G9a block, miR-21 reporter, LMNA splice mod, KDM4E inh, Sfp inh, ALDH1A1 block
O=C(Nc1ccccc1Br)C1CC(=O)N(c2ccc3c4c(cccc24)CC3)C1 (stereo not drawn)
→ 3.2%[59 µM], 15.1%, ?, 0.8%, -13.6%, 20µM*
O=C(Nc1ccc2c(c1)OCO2)C1CC(=O)N(c2ccc3c(c2)OCCO3)C1 (stereo not drawn)
→ -6.6%, -2.3%, nt, -2.9%, 12.1%, -7.4%
COc1ccc(Oc2ncc3nc(-c4ccc(F)cc4)c(=O)n(Cc4cccs4)c3n2)cc1
→ 11.5%[0.501 µM], nt, ?, nt, 6.3%, ?
COc1ccc(C)cc1N1CC(C(=O)Nc2ccccc2N2CCCCC2)CC1=O (stereo not drawn)
→ -6.3%[2.33 µM], nt, nt, nt, nt, nt
Cc1ccc(N2CC(C(=O)NCc3ccc4c(c3)OCO4)CC2=O)cc1C (stereo not drawn)
→ ?, -1.2%, 0.2%, 2.8%, -3.4%, 14.1µM*
COc1ccc(N2CC(C(=O)Nc3ccccc3N3CCCC3)CC2=O)c(OC)c1 (stereo not drawn)
→ 50.1µM*, nt, nt, nt, nt, nt
COc1ccc(NC(=O)C(NS(=O)(=O)c2cccc3nsnc23)C(C)C)cc1OC (stereo not drawn)
→ -3.5%[59 µM], 0.0%, nt, nt, nt, nt
COc1ccc(NC(=O)C(OC(=O)c2ccc([N+](=O)[O-])o2)c2ccccc2)cc1Cl (stereo not drawn)
→ ?, -5.4%, 7.6%, -0.1%, 16.2%, 2.51µM*
COc1ccc(NC(=O)C(OC(=O)c2cnc(C)cn2)c2ccccc2)cc1Cl (stereo not drawn)
→ -29.3%, nt, nt, nt, nt, nt
COC(C(=O)Nc1cccc([N+](=O)[O-])c1)c1ccccc1 (stereo not drawn)
→ nt, -1.1%, nt, -2.9%, 1.7%, 20µM*
Cc1ccc(NC(=O)Nc2cccc([N+](=O)[O-])c2)cc1F
→ -4.6%, 14.6%, ?, 4.4%, 79.4µM*, 2.6%
CCC(CC)=NNc1cccc([N+](=O)[O-])c1
→ ?, -2.4%, 2.1%, 0.6%, 4.5%, 28.2µM*
COC(C(=O)Nc1ccc(NC(=O)C(OC)c2ccccc2)cc1)c1ccccc1 (stereo not drawn)
→ 50.1µM*, -5.0%, nt, nt, 19.7%, nt
COC(=O)c1ccc(NC(=O)C(OC)c2ccccc2)cc1 (stereo not drawn)
→ 15.1%[59 µM], -25.2%, nt, 1.0%, -17.6%, ?
COC(C(=O)Nc1ccc(Cl)cc1C)c1ccccc1 (stereo not drawn)
→ 8.91µM*, -5.7%, 4.5%, -0.2%, -4.9%, -2.3%
Nc1cccc2c(=O)[nH]ccc12
→ nt, nt, nt, nt, -21.1%, nt
CN(C)CCN=Cc1c(O)n(-c2ccc(S(=O)(=O)N3CCOCC3)cc2)c(=O)c2ccccc12
→ 7.4%[0.501 µM], nt, nt, nt, nt, nt
CC(=O)Nc1ccc2c(c1)C(C)(C)C(C)N2C (stereo not drawn)
→ 17.8µM*, 6.9%, nt, -5.8%, -1.1%, -2.0%
O=C(NCCc1ccccc1)c1cnc2sc(N3CCCCCC3)nn2c1=O
→ 16.7%[59 µM], 0.8%, 4.3%[46 µM], nt, nt, nt
O=C(COc1ccc(/C=C\[N+](=O)[O-])cc1)N1CCOCC1
→ 10µM*, 7.7%, nt, -29.8%, 39.8µM*, 14.1µM*
O=C(Cc1ccc(Cl)cc1)c1c(O)cc(O)cc1O
→ nt, nt, nt, -8.9%, -15.8%, 2.7%
COc1ccc(C2=CSC3=NNC4(CCCCC4)NN23)cc1
→ 39.8µM*, -21.0%, ?, ?, -23.5%, ?
Cc1ccc(C2=CSC3=NNC4(CCCCC4)NN23)cc1
→ ?, -24.3%, -9.9%[46 µM], -9.8%, -6.2%, ?
CC(=O)Nc1ccc(S(=O)(=O)NCC(=O)OCC(=O)N2CCN(c3ccccc3)CC2)cc1
→ 50.1µM*, -0.4%, -1.8%, -1.9%, 18.4%, 20µM*
O=C(CNS(=O)(=O)c1c(Cl)cccc1Cl)OCC(=O)N1CCN(c2ccccc2)CC1
→ 56.2µM*, 0.0%, 15.1%, -1.8%, -16.1%, -1.5%
CCOc1ccc(CC2NCCc3cc(OCC)c(OCC)cc32)cc1OCC (stereo not drawn)
→ ?, 6.0%, nt, 35.5µM*, ?, -1.0%
